Experimental data reported in patent publication US5401725A, “Neovascularization inhibition by adenosine-5'-phosphosulfates” (Unitika Ltd., priority 1990, dated 1995).
“Also recorded” adds a separate entry of the source.

What was measured:
[1] = system: neovascularization of chorio-allantoic membranes; assay: neovascularization inhibition on chorio-allantoic membranes of fertilized fowl eggs; settings: in vivo
[2] = system: neovascularization in the cornea; assay: inhibition of neovascularization in the cornea of rabbits (slow-releasing pellet); settings: rabbit, in vivo
[3] = system: capillary vessel hyperplasia (experimental diabetic retinopathy); assay: therapeutic effect on experimental diabetic retinopathy; parameters: species or system rat (wister); settings: rat, in vivo; for beneficial effect on the pathologic state: ip
Description: First, streptozocin in an amount of 65 mg/kg was administered to a six-week aged male wister rat from its vena caudalis, and about three months thereafter, 3,3'-iminodipropionitrile was administered. Rats in which abnormal growth of capillary vessel (hyperplasia retinitis) was observed were screened out and were subjected to a medicament administration test with ten rats as a group.
For comparison purposes, the effect of the medroxyprogesterone acetate (MPA), the conventional substance for inhibiting the neovascularization, was also tested by the same procedure as described above.

Q: With `Nc1ncnc2c1ncn2[C@@H]1O[C@H](COP(=O)(O)OS(=O)(=O)O)[C@@H](O)[C@H]1O` [APS, adenosine 5'-phosphosulfate] as the molecule, how does the “neovascularization inhibition (in words)” value [1] read?
A: inhibited neovascularization in a dose-dependent manner

Q: What about the “neovascularization inhibitory effect (in words)” value [1] of the same molecule?
A: slight effect; also recorded: perfect neovascularization inhibitory effect

Q: What about the “inhibition of neovascularization caused by prostaglandin E1 or cuprous chloride” value [2] of the same molecule?
A: perfectly inhibit the neovascularization

Q: And the “therapeutic effect as compared with MPA (in words)” value [3]?
A: excellent therapeutic effect

Q: What about the “beneficial effect on the pathologic state” value ([3]; 1.5 mg/kg) of the same molecule?
A: 10%

Q: What about the “beneficial effect on the pathologic state” value ([3]; 3 mg/kg) of the same molecule?
A: 70%

Q: And the “beneficial effect on the pathologic state” value ([3]; 6 mg/kg)?
A: at least 80%
